Tests used:
[1] = Kinetic solubility of the compound in phosphate buffer at pH 7.4; assay type: physicochemical
Summary of the method: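 Kinetic and thermodynamic aqueous solubilities were measured in phosphate buffer at pH 7.4.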

Chains of the proteins cited; added tags and fusions are not shown.
UniProt P56704, whole entry: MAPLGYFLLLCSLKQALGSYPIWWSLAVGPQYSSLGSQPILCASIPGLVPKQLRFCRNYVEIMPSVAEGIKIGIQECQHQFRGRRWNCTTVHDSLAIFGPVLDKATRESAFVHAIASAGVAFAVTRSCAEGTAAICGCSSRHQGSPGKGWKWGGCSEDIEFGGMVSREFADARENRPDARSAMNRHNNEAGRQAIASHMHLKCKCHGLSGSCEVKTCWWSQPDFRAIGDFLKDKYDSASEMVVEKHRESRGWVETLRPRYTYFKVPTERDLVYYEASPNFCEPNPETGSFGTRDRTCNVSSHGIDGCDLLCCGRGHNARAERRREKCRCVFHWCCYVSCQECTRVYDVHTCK

Protein Wnt-3a = Protein Wnt-3a (Homo sapiens, UniProt P56704); assay: Inhibition of ligand-induced WNT3A signaling in human PA-1 cells harboring TCF preincubated for 6 hrs before ligand addition measured after 24 hrs by luciferase reporter assay; assay type: cell-based

Q: Which Kinetic_solubility [1] does the source give for `Cn1cc(-c2ccc(-c3cncc(Cl)c3N3CCC4(CCNC4=O)CC3)cc2)cn1` here?
A: 94 µM

Q: And the IC50 (Protein Wnt-3a)?
A: 7 nM

Source: ChEMBL document CHEMBL3407438, “Discovery of potent, orally bioavailable, small-molecule inhibitors of WNT signaling from a cell-based pathway screen” (J Med Chem, 2015)
